The values below are quoted from earlier work in patent US5583105A, “Oral pharmaceutical preparation” (Biogal Gyogyszerguar Rt, priority 1994, dated 1996).

A word on the LD50: it is the dose expected to kill half of the subjects tested.

In the data set the test system is white mouse.

A value given as a limit tells only on which side of the number the result lay.

Consider “d-α-tocopheryl polyethylene glycol 1000 succinate [Vitamin E TPGS]”, for which the 50% lethal dose (LD50) was greater than 5000 mg/kg.
